From PubChem BioAssay AID720488 (Milwaukee Institute for Drug Discovery, 2013)
The entries are a selection whose mix differs from that of the whole data set. Some results for these compounds are left out of this collection, so the calls shown say nothing about other tests. Active and inactive are the calls of the source.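 Rule for the calls: active = compound fluorescence over control fluorescence at most 0.8, a quencher, or at least a set upper limit, an enhancer; inactive = ratio between 0.8 and the set upper limit.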

Assay: fluorescence interference in NS3h DNA assay – biochemical, ChemBridge library, Cy5 readout, artefact control for HCV NS3 helicase inhibitor project (AID 720488)
Settings: Cy5-dT15 DNA with NS3h, at 100 µM, actives lie on both sides, signal over control mean, under 1 quenches

Row | SMILES | fluorescence interference ratio
1 | COc1ccc(OC)c(C=C(C#N)C#N)c1 | inactive: 0.998
